In patent US8163870B2, “Channel forming peptides” (Kansas State University Research Foundation, priority 2000, dated 2012):

Experiments:
[1] = Chemical cross-linking (BS3) and SDS-PAGE, oligomeric state of peptide in solution; format: physicochemical; conditions: SDS-PAGE of cross-linked peptide
Experimental: Chemical cross-linking: In order to visualize the oligomeric state of the peptide in solution a chemical cross-linking protocol was developed. Calculated amounts of each peptide were weighted out and dissolved in 1 mL of distilled water to make 1 mM stock solutions. A 100 mM stock solution of the chemical crosslinking reagent Bis[Sulfosuccinimidyl]suberate, BS^3, (Pierce Chemical Co., Rockford, Ill.) was prepared in dimethyl sulfoxide (DMSO). […] Sample were allowed to sit at room temperature for 15 minutes. 1-6 μL of 100 mM BS^3 was then added to the previously prepared peptide such that the crosslinking reagent was present in 20-fold excess. The final volume for each reaction was 100 μL. […] Each sample was then vacuum dried. Later dry samples were re-dissolved in 60 μL of distilled water along with 60 μL of a 2×-tricine SDS sample buffer (Novex, San Diego). All samples were then boiled at 100° C. for 5 minutes. 5 μL aliquots of each SDS boiled sample was then loaded into separate lanes of pre-cast, 1.0 mm, 10 well, 10-20% tricine gels (Novex, San Diego). Pre-made Novex tricine-SDS buffer was used in the electrophoresis. The reference well contained 1 μL of MultiMark® multi-colored molecular weight standard (Novex, San Diego). The electrophoresis was carried out at a constant 110 Volts for 90 minutes. […]

MDCK cells = format: cell-based, canine
Excerpt: Cell culture: MDCK cells were a generous gift of Dr. Lawrence Sullivan (Kansas University Medical Center, Kansas City, Kans.). T84 cells were obtained from Dr. Daniel Devor (University of Pittsburgh, Pittsburgh, Pa.). MDCK and T84 cells were maintained with similar culture procedures. The culture medium was a 1:1 mixture of DMEM and Ham's F-12 (Gibco BRL, Grand Island, N.Y.) supplemented with 5% heat inactivated fetal bovine serum (BioWhittaker, Walkersville, Md.), and 1% penicillin and streptomycin (Gibco BRL). Cells were grown in plastic culture flasks in a humidified environment with 5% CO2 at 37° C. and passaged every 5-7 days. For Ussing chamber experiments, cells were plated on 1.13 cm^2 permeable supports (Snapwell™, Costar®, Cambridge, Mass.) at a density of approximately 1×10^6 cells/well and incubated in DMEM/F-12 supplemented with FBS and antibiotics (changed every other day) for 2-3 weeks prior to being mounted in modified Ussing flux chambers.
To form monolayers, the cells were plated onto the upper surface of a permeable membrane that forms the bottom of a plastic well. Two types were used. One was the Transwell™ insert (Costar®, Cambridge, Mass.) supported in a six-well tissue culture plate and the other type was the Snapwell™ (Costar®, Cambridge, Mass.). During incubation, the medium was replaced at 48-72 hour intervals. Confluent monolayers formed within 72 hours. Experiments were performed on the monolayers 6-9 days after the initial plating. Net fluid secretion responses were optimal after six days.
Solutions: Ringer solution was made fresh daily. The final concentration (in mM) was 120 NaCl, 25 NaHCO3 3.3 KH2HPO4, 0.8 K2HPO4, 1.2 MgCl2, 1.2 CaCl2, (290±2 mOsmol). All components of the Ringer solution were from Sigma (St. Louis, Mo.).
Epithelial electrical measurements: Transepithelial ion transport was evaluated in a modified Ussing chamber (Model DCV9, Navicyte, San Diego, Calif.). The Ussing chamber's fluid resistance compensation was completed in Ringer solution (see below). For electrical measurements cell monolayers were bathed in Ringer solution maintained at 37° C. and continuously bubbled with 5% CO2:95% O2. The transepithelial membrane potential (Vte) was clamped to zero and the transepithelial short circuit current (Isc), an indicator of net ion transport, was measured continuously with a voltage clamp apparatus (Model 558C, University of Iowa, Department of Bioengineering, Iowa City, Iowa). Data were digitally acquired at 1 Hz with a Macintosh computer (Apple Computer, Cuppertino, Calif.) using Aqknowledge software (ver. 3.2.6, BIOPAC Systems, Santa Barbara, Calif.) with an MP100A-CE interface.
Transepithelial ion transport was evaluated in a modified Ussing chamber (Model DCV9, Navicyte, San Diego, Calif.). […] The transepithelial membrane potential (Vte) was clamped to zero and the transepithelial short circuit current (Isc), an indicator of net ion transport, was measured continuously with a voltage clamp apparatus (Model 558C, University of Iowa, Department of Bioengineering, Iowa City, Iowa). […]
MDCK cell monolayers (in the presence of 1-EBIO to maximize basolateral membrane K^+ conductance) were exposed on the apical aspect to escelating peptide concentrations. Maximal change in Isc (relative to the Isc prior to peptide exposure) was recorded following each increment in apical peptide concentration. […]

cultured CF monolayers = assay: Glutathione transport in cultured CF monolayers; format: cell-based

With `CC[C@H](C)[C@H](NC(=O)CNC(=O)[C@H](CC(C)C)NC(=O)CNC(=O)[C@@H](NC(=O)[C@H](CCCNC(=N)N)NC(=O)[C@H](C)NC(=O)[C@@H]1CCCN1C(=O)[C@H](CCCCN)NC(=O)[C@H](CCCCN)NC(=O)[C@H](CCCCN)NC(=O)[C@@H](N)CCCCN)C(C)C)C(=O)N[C@H](C(=O)N[C@H](C(=O)N[C@H](C(=O)N[C@@H](CC(C)C)C(=O)N[C@H](C(=O)N[C@@H](CCSC)C(=O)N[C@H](C(=O)N[C@H](C(=O)N[C@@H](CCC(N)=O)C(=O)N[C@@H](CO)C(=O)N[C@@H](CO)C(=O)NCC(=O)N[C@@H](CO)C(=O)N[C@@H](CCCNC(=N)N)C(=O)N[C@@H](C)C(=O)O)[C@@H](C)O)[C@@H](C)O)[C@@H](C)O)C(C)C)[C@@H](C)O)[C@@H](C)O` [SEQ ID No. 3, KKKKPARVGL GITTVLTMTT QSSGSRA, reference compound] the number of aggregates [1] was at least 12, the “size of largest assemblies” value [1] was about 36 kDa and the “increase in short circuit current (ISC) over that of C-K4-M2GlyR” value (MDCK cells) was “approximately 50%”. For the same compound, the EC50 (MDCK cells; MDCK monolayers, modified Hill equation fit, read-out: half maximal effect on Isc (EC50 / K1/2)) was 208 ± 6 µM, the “predicted IMAX” value (MDCK cells; fit of modified Hill equation, MDCK monolayers, 1-EBIO) was 24.3±0.5 μA cm^−2 and the “Activity profile in MDCK cells” value (MDCK cells; peptide at 500 μM) was 15.9 at 500 μM μA/cm2. For the same compound, the “fold higher concentration required to support anion flux than SEQ ID No. 18” value (MDCK cells; ratio of EC50) was 4 fold and the glutathione transport (cultured CF monolayers) was “helps restore glutathione transport”.
